{
  "sequences": {"note": "Sequences of proteins named here, by UniProt entry; tags and fusion partners are left off.", "UniProt P62937, whole entry": "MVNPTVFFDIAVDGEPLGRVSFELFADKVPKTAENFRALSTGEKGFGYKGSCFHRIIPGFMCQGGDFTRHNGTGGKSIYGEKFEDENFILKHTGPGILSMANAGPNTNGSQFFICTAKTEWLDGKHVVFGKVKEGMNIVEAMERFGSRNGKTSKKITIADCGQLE"},
  "source": "paper PMC5036131",
  "about": "“Fragment-based discovery of a new family of non-peptidic small-molecule cyclophilin inhibitors with potent antiviral activities” (Nature Communications, 2016)",
  "biological_target": "T1, CypA (Homo sapiens, UniProt P62937)",
  "T1 construct": "hexahistidine tag (His-Tag) (C); made in house; host or cells: E. coli C41(DE3)",
  "assay": "PPIase enzyme assay (chymotrypsin-coupled), CypA",
  "assay_type": "biochemical",
  "details": "20 °C, mean±s.d.",
  "procedure": "CypA and CypB proteins carrying a hexahistidine tag (His-Tag) at their carboxy terminus were expressed in E. coli and purified. Briefly, cultures of C41(DE3) cells were grown at 37 °C for 1 h until the culture reached an OD of 0.6 at 600 nm and then induced with 1 mM isopropyl-β-D-thiogalactopyranoside for 4 h at 37 °C (CypA) or overnight at 22 °C (CypB). Cell pellets were resuspended in a lysis buffer 20 mM NaH2PO4 pH 7.8, 300 mM NaCl, 7 mM β-mercaptoethanol, 1 mg ml^−1 lysozyme, 0.1 U μl^−1 desoxyribonuclease and complete protease inhibitor tablets (Roche Diagnostics Corporation, Indianapolis, Indiana). […] The bound protein was eluted in 1 ml fractions with a buffer composed of 20 mM NaH2PO4 pH 7.8, 300 mM NaCl, 250 mM imidazole, 7 mM β-mercaptoethanol and 10% glycerol, monitored by the Bradford colorimetric assay. The purity of each cyclophilin was determined by Coomassie-stained SDS–PAGE analysis.",
  "data": [
    {"smiles": "O=C(NC(=O)c1c(F)cccc1Cl)NC1c2ccccc2-c2ccccc21", "note": "[TMN-355, reference compound]", "values": [
      {"measurement": "IC50", "value": "> 100", "unit": "µM"}
    ]}
  ]
}
